This test has as its target pp60^c-src (Homo sapiens, UniProt P12931). The test can be described thus: Src inhibition (RR-SRC phosphorylation), Cellular Mimetic assay.

SMILES strings stand for the structures.

With `N#C/C(=C\c1ccc(O)c(O)c1)C(N)=S` [Tyrophostin A47, Tyrphostin A47, reference compound], the “% Inhibition at 100 μM (std. dev.)” value is recorded as 43 (+/−3) %.
